Chains of the proteins cited; added tags and fusions are not shown. Residues count along the entry.
UniProt P25440, 344-453 L383A limits assumed: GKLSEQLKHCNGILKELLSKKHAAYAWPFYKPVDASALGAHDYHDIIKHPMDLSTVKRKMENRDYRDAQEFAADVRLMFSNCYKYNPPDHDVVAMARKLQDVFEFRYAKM
UniProt P25440, 74-180 L110A limits assumed: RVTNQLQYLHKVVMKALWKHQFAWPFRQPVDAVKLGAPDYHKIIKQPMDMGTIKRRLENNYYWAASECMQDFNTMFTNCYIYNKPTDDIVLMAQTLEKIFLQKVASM

In patent US20170122958A1, “Enzymes Functional Probes” (University of Dundee, priority 2013, published 2017):

Experiments:
Type in all cases: binding
Brd4(1) = target: T1, Brd4(1) (Homo sapiens, UniProt O60885); assay: DSF thermal shift; conditions: wild type
T1 construct: Plasmids of the eight single BET bromodomain constructs Brd2(1), Brd2(2), Brd3(1), Brd3(2), Brd4(1), Brd4(2), Brdt(1) and Brdt(2); His6 (N); made in house; host or cells: E. coli BL21(DE3)

Brd2(2)*(Leu383-Ala) = Brd2(2)*(Leu383-Ala) (Homo sapiens, UniProt P25440, L383A); assay: ITC reverse titration of protein into compound; design: Plasmids of the eight single BET bromodomain constructs Brd2(1), Brd2(2), Brd3(1), Brd3(2), Brd4(1), Brd4(2), Brdt(1) and Brdt(2); His6 (N); made in house; host or cells: E. coli BL21(DE3); conditions: Brd2(2)*(Leu383-Ala) vs wild type Brd2(1), ITC Kd
Brd2(1)*(Leu110-Ala) = Brd2(1)*(Leu110-Ala) (Homo sapiens, UniProt P25440, L110A); assay: ITC reverse titration of protein into compound; design: Plasmids of the eight single BET bromodomain constructs Brd2(1), Brd2(2), Brd3(1), Brd3(2), Brd4(1), Brd4(2), Brdt(1) and Brdt(2); His6 (N); made in house; host or cells: E. coli BL21(DE3); conditions: Brd2(1)*(Leu110-Ala) vs wild type Brd2(2), ITC Kd
brd4(2)L387A = target: T2, brd4(2)L387A (Homo sapiens, UniProt O60885, L387A); assay: DSF thermal shift; conditions: mutant
T2 construct: Plasmids of the eight single BET bromodomain constructs Brd2(1), Brd2(2), Brd3(1), Brd3(2), Brd4(1), Brd4(2), Brdt(1) and Brdt(2); His6 (N); made in house; host or cells: E. coli BL21(DE3)

brd4(1)L094A = target: T3, brd4(1)L094A (Homo sapiens, UniProt O60885, L94A); assay: DSF thermal shift; conditions: mutant
T3 construct: Plasmids of the eight single BET bromodomain constructs Brd2(1), Brd2(2), Brd3(1), Brd3(2), Brd4(1), Brd4(2), Brdt(1) and Brdt(2); His6 (N); made in house; host or cells: E. coli BL21(DE3)

Brd4(2) = target: T4, Brd4(2) (Homo sapiens, UniProt O60885); assay: DSF thermal shift; conditions: wild type
T4 construct: Plasmids of the eight single BET bromodomain constructs Brd2(1), Brd2(2), Brd3(1), Brd3(2), Brd4(1), Brd4(2), Brdt(1) and Brdt(2); His6 (N); made in house; host or cells: E. coli BL21(DE3)

Brdt(2) = target: T5, Brdt(2) (Homo sapiens, UniProt Q58F21); assay: DSF thermal shift; conditions: wild type
T5 construct: Plasmids of the eight single BET bromodomain constructs Brd2(1), Brd2(2), Brd3(1), Brd3(2), Brd4(1), Brd4(2), Brdt(1) and Brdt(2); His6 (N); made in house; host or cells: E. coli BL21(DE3)
Procedure: (§1) DSF assays were performed on a LightCycler®480 from Roche or a Mx3005P Real Time PCR machine from Stratagene. […] SYPRO®Orange from Invitrogen Molecular Probes® was used as a reporter dye to monitor the denaturing process of the proteins. Samples were assayed on a 96-well plate with final protein concentrations of 2 μM for the LightCycler®480 and 6 μM for Mx3005P. Compounds were added at a final concentration of 10 μM for the LightCycler®480 and 30 μM for Mx3005P, while the tetra acetylated histone peptide was added to a final concentration of 100 μM and 300 μM respectively. […] The temperature was raised with a step of 0.6° C. per minute from 37° C. to 95° C. with the LightCycler®480 collecting 39 measurements per ° C., and 1° C. per minute from 25° C. to 95° C. with Mx3005P, collecting fluorescence readings at the end of each interval. Each sample was run in triplicates.
(§2) Collected data was analysed by IGOR Pro 6, a scientific software tool from Wave Metrics, Inc. Analysis was done following the recommendations of Niesen et al.. Fluorescence intensity was plotted as a function of temperature, generating a sigmoidal curve described by a two-state transition from folded to unfolded protein. Curves were fitted by the following sigmoidal equation: […]
(§3) A1 and A2 are the values of minimum and maximum intensities, respectively, x0 is the inflection point and dx is the rate. Fitted curves were differentiated in IGOR Pro 6 and the maximum of the first derivative was identified using the same program. These values correspond to the inflection points of the transition curves and thus to the melting temperatures of the proteins (Tm).

brdt(2)L306A = target: T6, brdt(2)L306A (Homo sapiens, UniProt Q58F21, L306A); assay: DSF thermal shift
T6 construct: Plasmids of the eight single BET bromodomain constructs Brd2(1), Brd2(2), Brd3(1), Brd3(2), Brd4(1), Brd4(2), Brdt(1) and Brdt(2); His6 (N); made in house; host or cells: E. coli BL21(DE3)
Procedure: as §1, §2, §3

Brdt(1) = target: T7, Brdt(1) (Homo sapiens, UniProt Q58F21); assay: DSF thermal shift; conditions: wild type
T7 construct: Plasmids of the eight single BET bromodomain constructs Brd2(1), Brd2(2), Brd3(1), Brd3(2), Brd4(1), Brd4(2), Brdt(1) and Brdt(2); His6 (N); made in house; host or cells: E. coli BL21(DE3)
Procedure: as §1, §2, §3

brdt(1)L063A = target: T8, brdt(1)L063A (Homo sapiens, UniProt Q58F21, L63A); assay: DSF thermal shift
T8 construct: Plasmids of the eight single BET bromodomain constructs Brd2(1), Brd2(2), Brd3(1), Brd3(2), Brd4(1), Brd4(2), Brdt(1) and Brdt(2); His6 (N); made in house; host or cells: E. coli BL21(DE3)

| Structure (SMILES) | ΔTm Brd4(1) (Brd4(1)) [K] | Fold higher affinity / selectivity for mutant over wild type (Brd2(2)*(Leu383-Ala)) | Fold higher affinity / selectivity for mutant over wild type (Brd2(2)*(Leu383-Ala); listed as compound 7) | Fold higher affinity / selectivity for mutant over wild type (Brd2(1)*(Leu110-Ala)) | Fold higher affinity / selectivity for mutant over wild type (Brd2(1)*(Leu110-Ala); listed as compound 7) | ΔTm Brd4(2)* (L387A) (brd4(2)L387A) [K] | ΔTm Brd4(1)* (L094A) (brd4(1)L094A) [K] | ΔTm Brd4(2) (Brd4(2)) [K] | ΔTm Brdt(2) (Brdt(2)) [K] | ΔTm Brdt(2) leucine to alanine mutant (brdt(2)L306A) [°C] | ΔTm Brdt(1) (Brdt(1)) [K] | ΔTm Brdt(1) leucine to alanine mutant (brdt(1)L063A) [°C] |
| --- | --- | --- | --- | --- | --- | --- | --- | --- | --- | --- | --- | --- |
| COC(=O)[C@H](C)[C@@H]1N=C(c2ccc(Cl)cc2)c2cc(OC)ccc2-n2c(C)nnc21 (racemic) [Compound 7, (+−)-methyl (R)-2-((S)-6-(4-chlorophenyl)-8-methoxy-1-methyl-4H-benzo[f][1,2,4]triazolo[4,3-a][1,4]diazepin-4-yl)propanoate] | 4.0 ± 0.4 | sixty six fold selectivity | sixty six fold higher affinity | eighteen fold selectivity | eighteen fold higher | 8.4 ± 0.1 | 10.7 ± 0.8 | 4.7 ± 0.0 | – | – | – | – |
| CCNC(=O)CC1N=C(c2ccc(Cl)cc2)c2cc(OC)ccc2-n2c(C)nnc21 (centres unmarked) [iBET, reference compound] | – | – | – | – | – | – | – | – | 5.4 ± 0.3 | 3.0 | 7.1 ± 0.5 | 0.9 |
| COC(=O)[C@@H](C)[C@@H]1N=C(c2ccc(Cl)cc2)c2cc(OC)ccc2-n2c(C)nnc21 (racemic) [Compound 6, (+−)-methyl (S)-2-((S)-6-(4-chlorophenyl)-8-methoxy-1-methyl-4H-benzo[f][1,2,4]triazolo[4,3-a][1,4]diazepin-4-yl)propanoate] | 0.0 ± 0.1 | – | – | – | – | – | – | 0.1 ± 0.1 | – | – | – | – |
